This series can be described thus: Clinical trial: single bolus dose (Cohort 4) versus fractionated dose (Cohort 5). The class given is in vivo, human. Particulars: Cohort 4, single bolus 31.25 mCi/m^2. The method, then:
Dosing is based upon body surface area or BSA in millicuries/meter squared (mCi/m^2). Patients either received a single 30 minute infusion of 31.25 mCi/m^2 on day 1 or a 30 minute fractionated infusion dose of 15.625 mCi/m^2 on day 1 and then repeated on day 8.

As to “^131I-labeled 18-(p-iodo-phenyl)octadecyl phosphocholine [CLR 131]”, the “Adverse Events Average Grade” value is on record as 3.23 ± 0.93 and the “Adverse Events Median Grade” value is listed as 3.0.

For the origin of these results see patent publication US20240131204A1, “Fractionated Dosing of a Phospholipid Ether Analog for the Treatment of Cancer” (Cellectar Biosciences, Inc., priority 2019, published 2024).
